{"source": "patent US7196190B2", "about": "“Methods and compositions for screening for angiogenesis modulating compounds” (Xenogen Corporation, priority 1999, dated 2007)", "origin": "cited, not measured here", "settings": "in vivo; cited from earlier work", "data": [{"substance": "VEGF", "values": [{"measurement": "half life in circulation", "value": 3, "unit": "min"}]}]}
